# Yeast mating assay B: variants of the scFv Ab-14

Reference: Li et al. 2023, doi:10.1038/s41467-023-39022-2. File: FLAb, binding data.

Target: peptide PDVDLGDISGINAS, taken from heptad repeat 2 (HR2) of SARS-CoV-2 spike.

The variants keep the heavy chain, the linker and the frameworks of Ab-14 (scFv order VH, a (GGGGS)3 linker, VL).
VH: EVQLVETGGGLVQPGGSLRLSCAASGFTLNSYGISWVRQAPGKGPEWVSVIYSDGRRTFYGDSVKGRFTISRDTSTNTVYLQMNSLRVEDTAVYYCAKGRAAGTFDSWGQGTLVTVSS
VL: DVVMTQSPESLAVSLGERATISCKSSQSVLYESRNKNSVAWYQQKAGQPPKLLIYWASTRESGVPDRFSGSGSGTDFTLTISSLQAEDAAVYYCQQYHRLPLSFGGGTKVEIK

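This is the validation round: designs drawn from the data on random variants, tested in the same kind of assay. Their group label is 14L_En_Gibbs (En: ensemble of fine-tuned language models; Gibbs: Gibbs sampling). The assay is AlphaSeq: two haploid yeast populations carry antibody and antigen on their surface. Mating (16 h, 30 °C) was followed by selection of diploids and sequencing of their barcodes. A regression on co-assayed BCL2-family reference pairs converts the normalised counts of each replicate to an apparent Kd. There are six technical replicates.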

Each variant is given by its three light chain CDRs, as the data file delimits them; those of the parent are KSSQSVLYESRNKNSVA, WASTRES, QQYHRLPLS. Values are log10 of the apparent Kd in nM; lower means stronger binding. "n.d." marks a missing value. The strain was present, yet no cells mated with the target were sequenced in that replicate, which points to weak or no binding. As a blank, each scFv also met three strains without target: over all light chain designs, 4% of these pairings were detected, typically at 2.64 and seldom below 1.59. Also given: how often the same scFv was detected with the empty control strains, with their mean in brackets. Of ten entries with the parent sequence, four were seen in most replicates (averages 0.34 to 2.37), three in one and three in none, so single entries are noisy. Values of this round are not directly comparable with the first-round values of the same sequences. The authors averaged sequences with at least three values out of six and counted those with two or fewer as poor binders.

| CDR-L1 | CDR-L2 | CDR-L3 | log10 Kd (nM) by replicate | signal with controls |
|---|---|---|---|---|
| KLMEQFGHSMDHMNNIA | HVDMLAQ | QQYMHLPLI | 0.85 / 0.44 / 0.82 / 0.72 / 0.76 / 0.97 | 0 of 18 |
| RMNKFMSGATEAKNSMA | GQEHRAR | QSYHRLPLS | 0.60 / 1.39 / 1.21 / 2.33 / 1.09 / 1.31 | 2 of 18 (2.35) |
| MMGLCQNGYYQQNNSIA | DVNERAM | QQYGRLPLS | 1.88 / 1.48 / 1.43 / 1.24 / 1.63 / 1.62 | 3 of 18 (3.47) |
| KIQELHYFDSEGEWNVA | DANISVL | QDYFRLPLS | n.d. / n.d. / n.d. / n.d. / n.d. / n.d. | 1 of 18 (1.25) |
| TITGEQSMSTQGNWNIA | QAEQKVH | QQYDRLPLA | n.d. / -0.31 / 0.37 / 0.48 / 0.89 / 1.51 | 0 of 18 |
| KLSSLQFDSYMQKENVA | ESTQVFN | QQYHHLPLT | 1.45 / 1.31 / 0.69 / 0.82 / 1.00 / 1.07 | 0 of 18 |
| SLQTKYSTAQDRWSNVA | HADQREA | QQYFRLPIV | 0.86 / 0.46 / 0.20 / 0.58 / 0.25 / 0.35 | 0 of 18 |
| SMQVYTENFMERGQNIA | DVSATTA | QQYHRLPLA | 0.55 / 0.69 / 0.83 / 0.57 / 0.56 / 0.54 | 0 of 18 |
| MIDMGEAPNGQQTSSIA | QGHLKAE | QQYYRLPLC | 0.47 / 0.34 / 0.17 / 0.51 / 0.34 / 0.54 | 0 of 18 |
| SVQYFPEESLRGASAIA | DVNIKVM | QQYSRLPLA | 0.74 / 0.40 / 0.15 / 0.30 / 0.26 / 0.32 | 1 of 18 (2.34) |
| HFSQETMEFMGQNKAIA | EVTTTML | QQYARLPFI | n.d. / n.d. / 0.62 / n.d. / n.d. / n.d. | 0 of 18 |
| NMKMSQLQGILIKDSIA | SSNLREM | QQYEHLPLI | 1.67 / 1.67 / 1.91 / 1.24 / 1.82 / 2.63 | 1 of 18 (2.74) |
| NVHALMNHSSEFQQSIA | DEECRDA | QQYFRLPLS | 1.64 / 1.44 / 1.00 / 1.16 / 1.70 / 1.68 | 1 of 18 (2.74) |
| QMRDSLSQGIYRQDSVA | STDIRVL | QQYHHLPLS | 0.50 / 0.12 / 0.60 / 0.41 / 0.42 / 0.41 | 0 of 18 |
| LLNAEDQGDDRGMNNIA | GGDTKMA | QQYHRLPLS | 0.17 / 0.08 / 0.20 / -0.05 / 0.02 / 0.27 | 2 of 18 (2.26) |
| ALALTLHQVDSQQNNIA | QGMERES | QQYNRLPLG | 2.27 / 1.97 / 1.13 / 1.51 / 1.37 / 1.14 | 0 of 18 |
| ALEMDTLGQKPKQNNIA | NDRMSTE | QQYYMLPLS | 2.20 / 1.41 / 1.41 / 1.91 / n.d. / 1.34 | 0 of 18 |
| KLVGVDDNDRNPSHNIA | DVSMLDN | QQYHRLPLD | 1.13 / 0.21 / 0.78 / 1.10 / 0.69 / 0.88 | 0 of 18 |
| SMTGGLLDGNREPSNIA | AQDIGTD | QQYHRLPFI | 0.64 / 0.72 / 0.58 / 0.60 / 0.67 / 0.68 | 1 of 18 (2.05) |
| QLQLQPLFGANAQSSIA | DVSEKDM | QQYARLPLH | 0.66 / 0.59 / 0.95 / 0.87 / 1.12 / 1.00 | 0 of 18 |
| MFLKEDFQELAAKNAIA | NAREVVT | QHYFRLPLV | 0.55 / 0.44 / 0.36 / 0.39 / 0.23 / 0.33 | 0 of 18 |
| SIRQVTDDYQATHDAIA | DASQIEP | QQYSILPLS | n.d. / n.d. / n.d. / n.d. / n.d. / n.d. | 0 of 18 |
| KIDMSLNYESVALNSIA | EEVMHTA | QQYDRLPLF | n.d. / n.d. / n.d. / n.d. / 2.28 / n.d. | 0 of 18 |
| RMDFQDLMWQYDANNIA | GATLSIE | QQYGRLPLT | 0.81 / 0.88 / 0.95 / 0.62 / 0.47 / 1.08 | 0 of 18 |
| NLNVSEDQWPSSKNAIA | QTTCRVL | QQYVHLPLS | 0.70 / 0.22 / 0.32 / 0.41 / 0.13 / 0.44 | 1 of 18 (2.24) |
| RIDDYENMLGKNKESIA | EAAVTLT | QQYARLPLS | 0.73 / 0.59 / 0.27 / 0.07 / 0.54 / 1.19 | 0 of 18 |
| KVKEDLNMGLKFQSSVA | SGAHREH | QQYYRLPLG | 0.48 / 0.38 / 0.38 / 0.83 / 0.55 / 0.43 | 2 of 18 (2.16) |
| MIEEDNAGEQKNSSNIA | SQDQKED | QQYQRLPLM | 1.53 / 1.96 / 1.37 / 1.22 / 1.01 / 1.56 | 1 of 18 (2.17) |
| HFSQMLEPGAQNFNAVA | NSDRVTE | QQYHKLPLA | 1.08 / 0.22 / 0.46 / -0.30 / -0.22 / 0.56 | 0 of 18 |
| IMSDSQERDASRLNNIA | DDYTRAM | QQYARLPLS | 0.90 / 1.08 / 0.81 / 1.00 / 0.61 / 1.44 | 3 of 18 (2.47) |
| QLNHYKHENMAKWQNIA | DMTIREK | QQYAHLPLA | 0.17 / -0.01 / 0.00 / -0.19 / -0.19 / -0.05 | 0 of 18 |
| KFAYGLDYNNAHKSAVA | HADIRNI | QQYFRLPLD | 0.65 / 1.37 / 0.70 / 0.94 / 0.07 / 0.94 | 0 of 18 |
| SMMFDTSDNYHERQNVA | DGAAIMA | QQYSILPLS | 0.95 / 0.70 / 1.05 / 0.46 / 0.98 / 0.65 | 1 of 18 (2.47) |
| QVQYAPGESLRSTQSIA | DVNIKDM | QQYARLPLS | 2.47 / 1.75 / 3.77 / 1.81 / 1.72 / 3.08 | 0 of 18 |
| KIDGQRSYQDGRERAIA | DANIRQR | QQYNRLPLV | 0.13 / 0.00 / -0.15 / -0.16 / -0.02 / 0.11 | 1 of 18 (1.81) |